# Measurements published in publication PMC10485003, “Antibiotic hyper-resistance in a class I aminoacyl-tRNA synthetase with altered active site signature motif” (Nature Communications, 2023).
# Several values for one entry are separate records, joined by “and”; a condition that tells them apart may be missing. Equal values may be shown once.
# Test system: W130Q PmIleRS2
# Assay: ATP-PPi exchange assay, mupirocin inhibition of amino acid activation
# Format: biochemical, Priestia (Bacillus) megaterium
# Conditions: c (mupirocin) = 1.0 μM; c (Ile) 10.0 μM; Replica 1-3; raw data for KI(MUP) towards Ile
# Description: L-Ile and ATP concentrations ranged from 1/10 KM to 10 KM values. When measuring the KI towards one of the substrates, the other was held in saturation (concentrations at least 10 KM). The aliquots of the reaction mixture (1–2.5 μl) were quenched in 2 volumes of 500 mM NaOAc pH = 4.5, 0.1% SDS, and formed ^32P-ATP was separated from the remaining ^32P-PPi by thin-layer chromatography on Polygram CEL 300 PEI UV254 TLC plates (Macherey-Nagel, cat: 801063) using 750 mM KH2PO4 pH=3.5, 4 M urea buffer. Visualization and quantification of the signals was performed using a Typhoon Phosphoimager 5 (General Electric) and accompanying ImageQuant™ TL software (SV: 10.2). The kinetic constants were determined using a global fit option of the competitive inhibition model of GraphPad Prism 6 software (SV: 6.01). All experiments were performed in triplicates. The kcat was determined by dividing the maximal velocity, VM, with the used enzyme concentration.
# Supplementary Fig. 8: The HXGH motif displacement is not dictated by a steric clash with a nearby α2 helix residue. a, c, d, e) Structural analysis identifies the α2 helix position (W130) that is in close proximity to the 4th His of the HXGH motif. A sequence alignment highlights this position as bulky in IRS2 (W130) but not in IRS1 (Q136), […]
smiles,measurement,value
C/C(=C\C(=O)OCCCCCCCCC(=O)O)C[C@@H]1OC[C@H](C[C@@H]2O[C@H]2[C@@H](C)[C@H](C)O)[C@@H](O)[C@H]1O [mupirocin],vo (initial enzyme velocity),0.01783 mM/min and 0.01799 mM/min
